Protein sequences, listed by entry. Tags and fused reporters are not part of them. Residues count along the entry.
UniProt P21439, 1-1279 isoform P21439-2: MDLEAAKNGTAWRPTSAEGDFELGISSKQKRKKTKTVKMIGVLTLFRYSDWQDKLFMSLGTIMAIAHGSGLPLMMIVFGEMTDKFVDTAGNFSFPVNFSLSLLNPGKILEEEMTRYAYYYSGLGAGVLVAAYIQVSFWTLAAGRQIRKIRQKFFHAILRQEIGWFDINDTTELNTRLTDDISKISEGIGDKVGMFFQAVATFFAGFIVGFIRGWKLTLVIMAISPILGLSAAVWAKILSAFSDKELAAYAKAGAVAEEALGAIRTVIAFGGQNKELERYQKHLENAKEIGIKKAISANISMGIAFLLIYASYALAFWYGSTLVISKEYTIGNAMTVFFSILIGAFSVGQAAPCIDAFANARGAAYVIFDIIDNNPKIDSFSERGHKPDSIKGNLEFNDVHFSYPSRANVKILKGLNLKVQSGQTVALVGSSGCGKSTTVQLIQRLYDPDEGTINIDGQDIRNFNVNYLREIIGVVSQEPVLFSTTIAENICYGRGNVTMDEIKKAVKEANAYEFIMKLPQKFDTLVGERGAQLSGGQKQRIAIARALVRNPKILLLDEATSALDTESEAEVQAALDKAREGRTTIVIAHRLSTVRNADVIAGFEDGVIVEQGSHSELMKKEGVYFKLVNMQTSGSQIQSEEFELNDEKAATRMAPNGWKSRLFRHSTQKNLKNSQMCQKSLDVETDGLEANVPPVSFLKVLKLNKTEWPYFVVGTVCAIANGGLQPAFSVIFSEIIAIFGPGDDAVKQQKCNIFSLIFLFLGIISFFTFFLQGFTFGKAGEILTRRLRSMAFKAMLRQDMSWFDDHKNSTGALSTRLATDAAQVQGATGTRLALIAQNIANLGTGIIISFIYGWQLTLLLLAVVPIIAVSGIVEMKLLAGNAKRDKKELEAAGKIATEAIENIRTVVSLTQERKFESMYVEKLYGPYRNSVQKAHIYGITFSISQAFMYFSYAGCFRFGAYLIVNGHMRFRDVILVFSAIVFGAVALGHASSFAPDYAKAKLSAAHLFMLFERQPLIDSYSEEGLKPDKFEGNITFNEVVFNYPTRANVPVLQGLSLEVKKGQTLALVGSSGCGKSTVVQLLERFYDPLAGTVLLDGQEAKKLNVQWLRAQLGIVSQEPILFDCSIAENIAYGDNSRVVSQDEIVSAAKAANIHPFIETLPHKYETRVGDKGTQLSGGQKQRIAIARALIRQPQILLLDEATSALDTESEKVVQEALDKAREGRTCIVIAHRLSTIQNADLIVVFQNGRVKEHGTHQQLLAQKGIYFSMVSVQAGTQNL

According to PMC10003010, “A Unique In Vitro Assay to Investigate ABCB4 Transport Function” (International Journal of Molecular Sciences, 2023):

Biological target: human ABCB4 (Homo sapiens, UniProt P21439)
Assay: Inhibition of ABCB4-mediated digoxin transport, bidirectional assay in Abcb1KO-MDCKII-ABCB4 cells
Assay type: cell-based
Design: expressed in transfected cells; host or cells: Abcb1KO-MDCKII (canine kidney, Abcb1 knockout), lentiviral transduction, single clone
Settings: digoxin 1 µM probe

`NC(=O)N1c2ccccc2C=Cc2ccccc21` [carbamazepine] was tested. Which “Effect on ABCB4-mediated digoxin transport, in words” value did it give?
Its value is “no effect”.
